Consider 47 molecules from PubChem BioAssay AID624288 (National Center for Advancing Translational Sciences (NCATS), 2012).

This is a selection; strong and weak results do not stand in their true shares. Results filed as inconclusive are left out. Activity calls are given as the source filed them. Calls come from the whole dose curve; cell line not stated here.
% is set by controls: 0 for no effect and ±100 for the full control effect.

The nature of this test: qHTS for Antagonists of gsp, the Etiologic Mutation Responsible for Fibrous Dysplasia/McCune-Albright Syndrome: qHTS. Note: nearly all actives have a fitted effect of over 65% in size. The note with it: gsp-mutant cells, cAMP HTRF, 30 min; at 76.9 µM (top of the series) unless noted. (qHTS replaces the single test concentration by a dilution series.)
As to `CP(=O)(Nc1ccccn1)Oc1ccc(Cl)cc1` (configuration not stated), the activity change, negative = inhibition was inactive: 1.86%. The value for `CP(=O)(Oc1ccccc1)OC(c1ccccc1)C(F)(F)F` (configuration not stated) was inactive: 11.7%; that for `CP(=O)(Nc1ccc(SC(F)(F)F)cc1)Oc1ccc(Cl)cc1` (configuration not stated) was inactive: 9.82%; that for `Cc1cccc(C)c1OP(C)(=O)Nc1ccc(SC(F)(F)F)cc1` (configuration not stated) was inactive: 15.6%. In the case of `COP1(=S)c2c(C)nn(CCC#N)c2N=C(c2ccc(F)cc2)N1C` (configuration not stated) it was inactive: 1.53%; in that of `Cc1cc(C)cc(OP(C)(=O)Nc2ccc(SC(F)(F)F)cc2)c1` (configuration not stated), inactive: 5.63%. The value for `O=C(Nc1ccncc1[N+](=O)[O-])c1ccc([N+](=O)[O-])cc1[N+](=O)[O-]` was inactive: 0.197%; that for `CCc1ccc(OP(C)(=O)N2CCN(c3ccc([N+](=O)[O-])cc3)CC2)cc1` (configuration not stated) was inactive: -14.6%.

As for `CP(=O)(NC(=O)Nc1ccccc1)Oc1ccccc1` (configuration not stated), the activity change, negative = inhibition is inactive: 5.74%.

`O=C(COc1ccccc1)OC1CN2CCC1CC2` (configuration not stated): the activity change, negative = inhibition was inactive: 3.35%. In the case of `O=[N+]([O-])c1cc([N+](=O)[O-])c(-c2cnn(-c3ccccc3)c2)c([N+](=O)[O-])c1` it was inactive: 2.45%; in that of `COc1ccccc1CNC(=O)COC(=O)C(O)(c1ccccc1)c1ccccc1`, inactive: 2.46%. For the molecule `CN(C(=O)Cc1ccc(Cl)c(Cl)c1)[C@@H]1CCCC[C@H]1N1CCCC1`, the activity change, negative = inhibition was inactive: 22.9%. On to `CC(C)/C=N\N=C(\N)N[N+](=O)[O-]`, for which the activity change, negative = inhibition was inactive: -1.19%.

Turning to `CC1(CBr)Cn2c(nc3ccccc3c2=O)S1` (configuration not stated), the activity change, negative = inhibition was inactive: 0.405%. `Cc1nc2ccc3ccccc3c2s1.O=[N+]([O-])c1cc([N+](=O)[O-])c(O)c([N+](=O)[O-])c1`: the activity change, negative = inhibition was inactive: -23.9%. The value for `CCOP(=O)(NC(=NC(C)c1ccccc1)NC(C)c1ccccc1)OCC` (configuration not stated) was inactive: -0.722%; that for `O=[N+]([O-])c1cc([N+](=O)[O-])c(-n2nnc3ccccc32)c([N+](=O)[O-])c1` was inactive: 5.36%; that for `CCC1=CC2Cc3nc4ccc(Cl)cc4c(N)c3C(C1)C2` (configuration not stated) was inactive: -0.105%. Regarding `O=P1(Nc2ccccn2)COc2ccccc2OC1`, the activity change, negative = inhibition is inactive: 2.16%.

Take `CN(CCCl)Cc1cc(Cl)c(NC2=NCCN2)c(Cl)c1`: the activity change, negative = inhibition is inactive: 32.5%. For the molecule `CCOP(=O)(Nc1ccc(C)cn1)OCC`, the activity change, negative = inhibition was inactive: -2.18%. Regarding `CC(C)(C)C(=O)NC(Sc1ncccn1)C(Cl)(Cl)Cl` (configuration not stated), the activity change, negative = inhibition is inactive: 0.109%.

Regarding `Clc1n[nH]nc1-c1nn[nH][15n]1`, the activity change, negative = inhibition is inactive: 4.1%. Turning to `O=P1(Nc2ncccn2)COc2ccccc2OC1`, the activity change, negative = inhibition is inactive: 3.95%. On to `CN1CCCCC1COC(=O)C1(O)c2ccccc2CCc2ccccc21` (configuration not stated), for which the activity change, negative = inhibition is inactive: 10.7%. In the case of `COc1ccccc1OP(C)(=O)Nc1c(C)cccc1C` (configuration not stated), the activity change, negative = inhibition is inactive: 11.8%. With `CP(=O)(Nc1ccc(SC(F)(F)F)cc1)Oc1ccccc1` (configuration not stated), the activity change, negative = inhibition is inactive: 2.16%. In the case of `Nc1cccc([As](=O)(O)c2ccccc2)c1` it was inactive: 8.27%. Take `CCCOc1ccc(NP(C)(=O)Oc2ccc(Cl)cc2)cc1` (configuration not stated): the activity change, negative = inhibition is inactive: -4.07%. Turning to `NS(=O)(=O)c1cccc(NC(=O)COC(=O)C(O)(c2ccccc2)c2ccccc2)c1`, the activity change, negative = inhibition is inactive: -1.29%. In the case of `O=P1(Nc2ccc(Br)cn2)COc2ccccc2OC1` it was inactive: -2.25%; in that of `Cc1ccc(OCC(=O)OC2CN3CCC2CC3)cc1` (configuration not stated), inactive: 14.6%; in that of `O=[As](O)(c1cccs1)c1cccs1`, inactive: -2.63%. As for `Cc1ccc(C(=O)OC2CN3CCC2CC3)cc1` (configuration not stated), the activity change, negative = inhibition was inactive: 14.7%. Take `CC1CCC(C(C)C)C(OP(=O)(Nc2ccccn2)c2ccccc2)C1` (configuration not stated): the activity change, negative = inhibition is inactive: -9.17%. Regarding `Cc1nn(-c2ccccc2)c2c1P(=O)(N1CCOCC1)N(C)C(c1ccccc1)=N2` (configuration not stated), the activity change, negative = inhibition is inactive: 1.59%. In the case of `COc1cc(C2NCCC3(OCCO3)C2(C)C)cc(OC)c1OC.O=[N+]([O-])c1cc([N+](=O)[O-])c(O)c([N+](=O)[O-])c1` (configuration not stated), the activity change, negative = inhibition was inactive: -13.9%. For `O=[N+]([O-])c1cc([N+](=O)[O-])c(Nc2nnnn2CCO)c([N+](=O)[O-])c1`, the activity change, negative = inhibition is inactive: -9.98%. For `CC1=C2N=C(C=C3N=C(C(C)=C4[N-][C@@](C)([C@@H]5N=C1[C@](C)(CCC(=O)NC[C@@H](C)OP(=O)([O-])O[C@H]1[C@@H](O)[C@@H](n6cnc7cc(C)c(C)cc76)O[C@@H]1CO)[C@H]5CC(N)=O)[C@@](C)(CC(N)=O)[C@@H]4CCC(N)=O)[C@@](C)(CC(N)=O)[C@@H]3CCC(N)=O)C(C)(C)[C@@H]2CCC(N)=O.[C-]#N.[Co+3]`, the activity change, negative = inhibition was inactive: 2.33%. Take `CN(C)C1(CNC(=O)c2ccc(S(C)(=O)=O)cc2)CCCCC1`: the activity change, negative = inhibition was inactive: 9.06%.

Regarding `CCCC1OP(=O)(Nc2ccccc2)OCC1CC` (configuration not stated), the activity change, negative = inhibition was inactive: -1.16%. The value for `O=C(/C=C/c1ccccc1)OC1CN2CCC1CC2` (configuration not stated) was inactive: 12.8%; that for `NC(=O)Nc1ccc([As](=O)(O)O)cc1` was inactive: 11.9%; that for `CN(C(=O)Cc1ccccc1)[C@@H]1CC[C@]2(CCCO2)C[C@H]1N1CCCC1` was inactive: 1.02%. Take `CCOP1(=S)c2c(C)nn(CCC#N)c2N=C(c2ccc(F)cc2)N1C` (configuration not stated): the activity change, negative = inhibition is inactive: -5.49%. On to `N#CCCN(C(=O)COC(=O)C(O)(c1ccccc1)c1ccccc1)c1ccc(F)cc1`, for which the activity change, negative = inhibition is inactive: 4.11%.
